Source: US20180325872A1, “COMPOUNDS FOR TREATMENT OF CANCER” (UNIVERSITY OF TENNESSEE RESEARCH FOUNDATION, priority 2013, published 2018)

Legend:
[1] = tested on: BCRP; assay: Cytotoxicity in cells with BCRP-mediated resistance; conditions: discussion of Table 11B
[2] = Pharmacokinetic study in Sprague-Dawley rats; conditions: rat, IV 5 mg/kg, N = 3

SMILES | resistance index, BCRP [1] | AUC [2] [µg·min/mL]
CCc1c2c(nc3ccc(O)cc13)-c1cc3c(c(=O)n1C2)COC(=O)[C@]3(O)CC [SN-38] | 41 | –
COc1cc(C(=O)c2csc(Nc3ccc4[nH]ccc4c3)n2)cc(OC)c1OC [compound 55] | – | 509 ± 73
